Measured values as given in patent publication US20210347910A1 (SYSMEX, published 2021).

Molecular target: T1, HER2 protein (R&D Systems, Inc., catalog number: 1129-ER) (UniProt P04626, in part)
T1 construct: Bought protein coated on the ELISA plate
Experiment: ELISA, HER2 protein coated, His-tagged Fab titrated, HRP anti-His detection
Text: HER2 protein (R&D Systems, Inc., catalog number: 1129-ER) was used as an antigen for a human anti-HER2 antibody. Humulin R U-100 (Eli Lilly and Company) was used as an antigen for a mouse anti-insulin antibody. CD80 protein (R&D Systems, Inc., catalog number: 140-B1) was used as an antigen for a rabbit anti-CD80 antibody. As antibodies for detection, the wild type and the heavy-chain mutant type (10-110) of the humanized anti-HER2 antibody (Fab), the wild type and the heavy-chain mutant type (9-109) of the mouse anti-insulin antibody (Fab), and the wild type and the heavy-chain mutant type (9-109) of the rabbit anti-CD80 antibody (Fab) were used. A histidine tag was added to these antibodies for detection (Fabs). Each antibody for detection was stepwise diluted with 1% BSA-containing PBS to obtain a plurality of Fab solutions with different concentrations.
Each antigen was diluted with PBS (pH 7.4) to prepare a solution of each antigen. The solution of each antigen was added to wells of a MaxiSorp (trademark) flat bottom plate (Thermo Fisher Scientific, Inc.). The mixture was allowed to stand overnight at 4° C. The antigen solution was removed, and a blocking solution (1% BSA-containing PBS) was added to each well to perform blocking. […] After washing, a solution of an ABST substrate (Thermo Fisher Scientific Inc.) was added to each well, and absorbance at 450 nm was measured.

binding result: binds
B1: heavy-chain mutant type (10-110) of the humanized anti-HER2 antibody (Fab) (Fab, V domains shown)
VH: [letters of about 120 residues left out]
VL: DIQMTQSPSSLSASVGDRVTITCRASQDVNTAVAWYQQKPGKAPKLLIYSASFLYSGVPSRFSGSRSGTDFTLTISSLQPEDFATYYCQQHYTTPPTFGQGTKVEIKR
notes: Tested as a Fab with an added histidine tag; The light chain is unmodified
